Assay outcomes as filed in PubChem BioAssay.
Cneo AK release: Cryptococcus neoformans lysis via adenylate kinase release; C. neoformans lysis, adenylate kinase release luminescence, 4 h; normalised: neutral wells 0, clomiphene wells 100; 0.2% of 360,000 active; lysis activity, % at 15 µM;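 active means mean lysis activity across replicates of at least 80%, whatever share of replicates individually reach that level; inactive means mean lysis activity below 80%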
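Assay system: Cryptococcus neoformans yeast cells / Dosing: single-point compound dose / Timing: 4 h at 37 °C static, read 1 h later / Measured by: luminescence of released adenylate kinase using an AK detection reagent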
E-selectin induc: E-selectin induction on HUVECs; P16581; HUVEC E-selectin immunofluorescence imaging; normalized: neutral wells 0, TNF-alpha wells 100; activation, % at 7.58 µM; 0.37% of 260,000 active;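 active means mean E-selectin-positive cell signal at least 10% of the positive control, reached in at least 60% of replicates, without over 20% cell loss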
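Assay system: HUVEC primary endothelial cells. Input: 3,000 HUVEC seeded per well. Doses: one compound dose added by pin transfer. Read-out basis: % PE-positive cells. Benchmarks: TNF-alpha high, DMSO low. Detection: immunofluorescence imaging. Buffer or medium: EGM-2, gelatin.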
Yeast UUG start: alters start codon recognition fidelity in yeast; S. cerevisiae UUG-firefly luciferase reporter, luminescence/redox ratio; activity score, % at 18.7 µM; actives 0.13% (n = 350,000); AID 602363;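 active = replicate mean at a twofold rise or more, about +100% in these data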;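 also: firefly luciferase made from a UUG start codon reports start codon fidelity; reporter light over untreated wells divided by growth signal over untreated wells; some hits fall short of that in this replicate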
DENV2 CPE rescue: inhibitors of DENV2 cytopathic effect; DENV2-infected cells, cytopathic effect rescue, plate reader; CPE inhibition, % at 9.99 µM; 1.7% of 350,000 active; in the data active means CPE inhibition above about 20%, passing the limit was not always enough; tested in BHK-21 cells
Numbers stand for hits; ! = a repeat was not active. An excerpt weighted towards active compounds, which were near 1.8% of everything screened.

Results for Nc1ncnc2c1ncn2[C@@H]1O[C@H](C(=O)N[C@@H](CCc2ccccc2)C(=O)N2CCN(C(=O)C(F)(F)F)CC2)[C@@H](O)[C@H]1O ?
E-selectin induc: inactive; DENV2 CPE rescue: inactive

How did NC(=O)[C@@H]1CCCN1C(=O)[C@H](CCc1ccccc1)NC(=O)[C@H]1O[C@@H](n2cnc3c(N)ncnc32)[C@H](O)[C@@H]1O do in these assays?
E-selectin induc: inactive; DENV2 CPE rescue: 40

Results for Cc1ccc([C@@H]2CC=C(C(=O)O)[C@H](c3ccc(Br)cc3)N2S(=O)(=O)c2ccccc2C)cc1 ?
Cneo AK release: inactive; E-selectin induc: inactive; Yeast UUG start: inactive; DENV2 CPE rescue: 28

How did O=C(NC(Cc1ccccc1)c1nc2ccccc2[nH]1)c1cccc([N+](=O)[O-])c1 (centres undefined) do in these assays?
E-selectin induc: 83

What do the screens show for `CCOC(=O)c1sc(NC(=O)c2ccncc2)c(C#N)c1C`?
E-selectin induc: inactive; DENV2 CPE rescue: 43

Results for CCOC(=O)c1c(NC(=O)c2ccncc2)sc(C)c1C ?
DENV2 CPE rescue: inactive

What do the screens show for `O=C(C[C@@H]1C[C@@H]2c3cc(NC(=O)NC4CCCCC4)ccc3O[C@@H]2[C@H](CO)O1)NCc1ccccc1`?
Cneo AK release: inactive; E-selectin induc: inactive; Yeast UUG start: inactive; DENV2 CPE rescue: inactive

Results for O=c1oc2ccc(Br)cc2cc1-c1nc2ccccc2o1 ?
Cneo AK release: inactive; Yeast UUG start: inactive; DENV2 CPE rescue: inactive

How did Brc1ccc2oc(-c3ccn[nH]3)cc2c1 do in these assays?
Cneo AK release: inactive; E-selectin induc: 74; Yeast UUG start: inactive; DENV2 CPE rescue: inactive

How did O=C1CC(N2CCSCC2)C(=O)N1c1cccc(Br)c1 (centres undefined) do in these assays?
Cneo AK release: inactive; E-selectin induc: 43; Yeast UUG start: inactive; DENV2 CPE rescue: inactive

Results for C[C@@H]1CN([C@H](C)CO)C(=O)c2cc(-c3cncnc3)cnc2O[C@@H]1CN(C)C(=O)c1cccc(F)c1 ?
Cneo AK release: inactive; E-selectin induc: inactive; Yeast UUG start: inactive; DENV2 CPE rescue: inactive

Results for O=C/C=C/c1ccc2c(c1)OCO2 ?
Cneo AK release: inactive; DENV2 CPE rescue: inactive

What do the screens show for `Cc1c(Cl)cccc1NC(=O)C1CC(=O)N(C2CCCC2)C1` (centres undefined)?
Cneo AK release: inactive; E-selectin induc: inactive; Yeast UUG start: inactive; DENV2 CPE rescue: inactive

How did Cc1c(Cl)cccc1NC(=O)CNC(=O)C1CC(=O)N(C2CCCC2)C1 (centres undefined) do in these assays?
Cneo AK release: inactive; E-selectin induc: inactive; Yeast UUG start: inactive; DENV2 CPE rescue: 88

What do the screens show for `COc1ccc(S(=O)(=O)N2CCCC2C(=O)NCC(=O)Nc2cccc(Cl)c2C)cc1` (centres undefined)?
Cneo AK release: inactive; Yeast UUG start: inactive; DENV2 CPE rescue: 70

Results for COc1ccc(NC(=O)N2C[C@@H](O)COC[C@H]3O[C@H](CC(=O)N4CCN(C)CC4)CC[C@@H]32)cc1 ?
Cneo AK release: inactive; E-selectin induc: inactive; Yeast UUG start: inactive; DENV2 CPE rescue: inactive

How did COCC#Cc1cnc2c(c1)C(=O)N([C@@H](C)CO)C[C@@H](C)[C@H](CN(C)C(=O)C1CCC1)O2 do in these assays?
Cneo AK release: inactive; E-selectin induc: inactive; Yeast UUG start: inactive; DENV2 CPE rescue: inactive

What do the screens show for `C[C@@H]1CN([C@@H](C)CO)C(=O)c2cc(NC(=O)C3CCCCC3)ccc2O[C@H]1CN(C)S(=O)(=O)c1ccc(Cl)cc1`?
Cneo AK release: inactive; Yeast UUG start: inactive; DENV2 CPE rescue: inactive

What do the screens show for `COc1ccc(OC(=O)N(C)C[C@H]2OCc3cn(nn3)CCCC(=O)N([C@H](C)CO)C[C@@H]2C)cc1`?
Cneo AK release: inactive; E-selectin induc: inactive; Yeast UUG start: inactive; DENV2 CPE rescue: 43!

Results for C[C@@H]1CN([C@H](C)CO)C(=O)CCCn2cc(nn2)CO[C@H]1CN(C)S(=O)(=O)c1cccc(F)c1 ?
Cneo AK release: inactive; E-selectin induc: inactive; Yeast UUG start: inactive; DENV2 CPE rescue: inactive

What do the screens show for `C[C@@H]1CN([C@@H](C)CO)C(=O)CCCn2cc(nn2)CO[C@@H]1CN(C)C(=O)NC1CCCC1`?
Cneo AK release: 117; E-selectin induc: inactive

What do the screens show for `Cc1cccc(S(=O)(=O)N(C)C[C@H]2OCc3cn(nn3)CCCC(=O)N([C@@H](C)CO)C[C@@H]2C)c1`?
Cneo AK release: inactive; E-selectin induc: inactive; Yeast UUG start: inactive; DENV2 CPE rescue: 47!

What do the screens show for `CC(C)OC(=O)N(C)C[C@@H]1OCc2cn(nn2)CCCC(=O)N([C@H](C)CO)C[C@@H]1C`?
Cneo AK release: inactive; E-selectin induc: inactive; DENV2 CPE rescue: 84
